Source: US20230263822A1, “MODULATION OF FACTOR 11 EXPRESSION” (Ionis Pharmaceuticals, Inc., priority 2008, published 2023)

Key:
Factor 11 mRNA = Factor 11 mRNA in liver, FeCl3 induced venous thrombosis model vs warfarin (Example 11); assay type: in vivo, BALB/c mice; details: FeCl3 VT model
Experimental: Two control groups of BALB/c mice were treated with PBS, administered subcutaneously twice a week for 3 weeks. Two days after the last dose of PBS, mice in both groups were anesthetized with 150 mg/kg ketamine mixed with 10 mg/kg xylazine administered by intraperitoneal injection. Thrombus formation was induced with FeCl3 in all groups of mice except the first control group.
In mice undergoing FeCl3 treatment, thrombus formation was induced by applying a piece of filter paper (2×4 mm) pre-saturated with 10% FeCl3 solution directly on the vena cava. After 3 minutes of exposure, the filter paper was removed. Thirty minutes after the filter paper application, a fixed length of the vein containing the thrombus was dissected out for platelet analysis. Liver was collected for RNA analysis.
RNA was extracted from liver tissue for real-time PCR analysis of Factor 11.

blood coagulation = experiment: PT and aPTT vs warfarin (Example 13); assay type: in vivo, BALB/c mice; details: Warfarin 0.5 mg/kg intraperitoneally daily for 6 days; PPP two days after final dose
Experimental: In a control group, BALB/c mice were treated with PBS, administered subcutaneously mice twice a week for 3 weeks.
Two days after the final dose was administered, PPP was collected and PT and aPTT assays were performed.
PT and aPTT values provided in Table 16 are reported as International Normalized Ratio (INR) values. […] This ratio was then raised to the power of the International Sensitivity Index (ISI) of the tissue factor used.

CC(=O)CC(c1ccccc1)c1c(O)c2ccccc2oc1=O (stereo not shown) [warfarin]
% inhibition of Factor 11 mRNA in liver relative to PBS control (Factor 11 mRNA; Warfarin 0.5 mg/kg intraperitoneally daily for 6 days): 0% | % inhibition of Factor 11 mRNA in liver relative to PBS control (Factor 11 mRNA; Warfarin 1 mg/kg intraperitoneally daily for 6 days): 0% | % inhibition of Factor 11 mRNA in liver relative to PBS control (Factor 11 mRNA; Warfarin 2 mg/kg intraperitoneally daily for 6 days): 1% | % inhibition of Factor 11 mRNA in liver relative to PBS control (Factor 11 mRNA; Warfarin 3 mg/kg intraperitoneally daily for 6 days): 5% | % inhibition of Factor 11 mRNA in liver relative to PBS control (Factor 11 mRNA; Warfarin 4 mg/kg intraperitoneally daily for 6 days): 8% | % inhibition of Factor 11 mRNA in liver relative to PBS control (Factor 11 mRNA; Warfarin 5 mg/kg intraperitoneally daily for 6 days): 11% | PT INR (blood coagulation): 1.41 INR
